# The list shows a part of the results, in another mix than the full data. Some salts or complexes appear as unconnected parts, following the source record. Active and inactive are the calls of the source. Cut-off read from the data, not from the text of the source: active = inhibition above about 5% (passing the limit was not always enough); inactive = the rest.
# Sequences of proteins named here, by UniProt entry; tags and fusion partners are left off.
# UniProt P00519, whole entry, looked up: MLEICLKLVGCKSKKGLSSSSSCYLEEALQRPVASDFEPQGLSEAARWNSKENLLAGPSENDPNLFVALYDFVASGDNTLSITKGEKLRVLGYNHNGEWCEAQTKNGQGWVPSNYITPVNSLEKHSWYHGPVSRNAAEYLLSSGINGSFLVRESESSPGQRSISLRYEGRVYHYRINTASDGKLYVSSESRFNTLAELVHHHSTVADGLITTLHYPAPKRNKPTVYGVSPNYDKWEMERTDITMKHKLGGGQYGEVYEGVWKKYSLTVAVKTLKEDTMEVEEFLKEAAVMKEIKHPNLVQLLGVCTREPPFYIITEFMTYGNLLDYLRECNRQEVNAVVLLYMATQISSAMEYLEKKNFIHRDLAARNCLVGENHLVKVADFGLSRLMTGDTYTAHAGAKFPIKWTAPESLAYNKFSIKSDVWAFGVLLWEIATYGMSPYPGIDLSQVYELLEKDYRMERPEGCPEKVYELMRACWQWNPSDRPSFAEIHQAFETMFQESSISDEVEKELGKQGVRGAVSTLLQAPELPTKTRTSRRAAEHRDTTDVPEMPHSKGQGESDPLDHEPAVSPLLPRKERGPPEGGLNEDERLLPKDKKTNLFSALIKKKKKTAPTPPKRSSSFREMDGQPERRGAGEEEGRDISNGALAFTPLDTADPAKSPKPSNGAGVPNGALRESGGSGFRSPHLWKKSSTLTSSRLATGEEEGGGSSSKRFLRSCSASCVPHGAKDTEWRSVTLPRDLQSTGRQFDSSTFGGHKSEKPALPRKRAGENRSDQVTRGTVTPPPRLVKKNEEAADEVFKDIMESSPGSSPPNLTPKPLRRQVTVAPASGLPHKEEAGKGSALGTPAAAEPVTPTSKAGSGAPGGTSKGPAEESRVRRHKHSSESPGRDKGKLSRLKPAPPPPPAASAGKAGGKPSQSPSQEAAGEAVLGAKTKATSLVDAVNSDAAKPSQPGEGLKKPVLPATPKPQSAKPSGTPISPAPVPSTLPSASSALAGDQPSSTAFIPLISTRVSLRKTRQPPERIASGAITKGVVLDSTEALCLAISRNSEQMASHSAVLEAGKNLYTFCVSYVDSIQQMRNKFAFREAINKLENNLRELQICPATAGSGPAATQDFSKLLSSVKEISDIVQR
# UniProt Q13671, whole entry, looked up: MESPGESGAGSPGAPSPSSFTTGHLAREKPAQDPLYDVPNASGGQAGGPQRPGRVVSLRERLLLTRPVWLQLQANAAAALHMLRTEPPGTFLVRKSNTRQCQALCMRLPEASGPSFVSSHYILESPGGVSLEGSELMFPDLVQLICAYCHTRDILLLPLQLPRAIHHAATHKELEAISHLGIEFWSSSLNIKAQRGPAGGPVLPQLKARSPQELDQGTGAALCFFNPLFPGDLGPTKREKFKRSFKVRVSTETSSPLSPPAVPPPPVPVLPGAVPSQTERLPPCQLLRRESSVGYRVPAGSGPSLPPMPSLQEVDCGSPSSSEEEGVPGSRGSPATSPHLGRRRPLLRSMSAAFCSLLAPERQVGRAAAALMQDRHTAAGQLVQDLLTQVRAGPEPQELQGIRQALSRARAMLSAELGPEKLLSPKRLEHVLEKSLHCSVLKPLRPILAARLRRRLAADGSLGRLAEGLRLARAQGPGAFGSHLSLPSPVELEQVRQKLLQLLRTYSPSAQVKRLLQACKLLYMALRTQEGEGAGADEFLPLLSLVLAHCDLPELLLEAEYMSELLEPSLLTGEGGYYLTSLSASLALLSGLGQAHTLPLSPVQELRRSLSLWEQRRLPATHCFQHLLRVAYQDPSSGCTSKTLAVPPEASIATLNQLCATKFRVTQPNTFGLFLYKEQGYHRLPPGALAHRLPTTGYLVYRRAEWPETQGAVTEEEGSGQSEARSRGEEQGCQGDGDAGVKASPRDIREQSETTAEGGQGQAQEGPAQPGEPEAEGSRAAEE
# Target: Tyrosine-protein kinase ABL1 (Homo sapiens) + Ras and Rab interactor 1 (Homo sapiens) (UniProt P00519+Q13671)
# Assay: disruptors of human Abl and Rin1 association – biochemical, TR-FRET, primary screen (AID 588664)
# Conditions: TR-FRET Rin1/Abl binding, at 7.35 µM, stronger effect = higher value
row,SMILES,inhibition
1,Cc1c(NP(C)(=O)Oc2ccc(C(C)C)cc2)c(=O)n(-c2ccccc2)n1C (centres undefined),inactive: -0.29%
2,O=[N+]([O-])c1cc([N+](=O)[O-])c(Nc2ccccn2)c([N+](=O)[O-])c1,inactive: -1.68%
3,CCc1ccc(OP(C)(=O)O)cc1,inactive: -2.55%
4,COc1ccccc1OP(C)(=O)Nc1ccc(C)cc1C (centres undefined),inactive: -0.04%
5,CP(=O)(Nc1ccccn1)Oc1ccccc1 (centres undefined),inactive: 2.15%
6,COc1ccccc1OP(C)(=O)Nc1ccc(Br)cc1 (centres undefined),inactive: -3.65%
7,CN(C)CCOC(=O)C(O)(c1ccccc1)C1CCCC1 (centres undefined),inactive: -1.24%
8,COc1ccc(OP(C)(=O)Nc2ccccn2)cc1 (centres undefined),inactive: 0.97%
9,CCCCCCCCCCCCCCCC1C[N+](C)(C)CCOP(C)(=O)O1 (centres undefined),inactive: 2.66%
10,CP(=O)(Nc1ccc(Cl)cc1Cl)Oc1ccccc1 (centres undefined),inactive: 1.64%
11,CP(=O)(OCCOc1ccccc1)OCCOc1ccccc1,inactive: 3.44%
12,Cc1cc(C)cc(OP(C)(=O)Nc2cccc(C(F)(F)F)c2)c1 (centres undefined),inactive: -2.23%
13,O=C1C(O)=C([N+](=O)[O-])C(=O)C(O)=C1[N+](=O)[O-],inactive: 5.54%
14,COc1ccc(OP(C)(=O)Nc2ccccc2Br)cc1 (centres undefined),inactive: 0.43%
15,COc1ccccc1OP(C)(=O)Nc1ccc(C)c(C)c1 (centres undefined),inactive: -0.2%
16,CCN(CC)CCCOC(=O)C(O)(c1ccccc1)C1CCCCC1 (centres undefined),inactive: 3.72%
17,Cc1c([N+](=O)[O-])cc([N+](=O)[O-])c(Br)c1[N+](=O)[O-],inactive: -0.64%
18,CCCCCOc1ccc(NP(C)(=O)Oc2ccc(Cl)cc2Cl)cc1 (centres undefined),inactive: 0.45%
19,O=[N+]([O-])c1cc([N+](=O)[O-])c(OC2CCCCC2O)c([N+](=O)[O-])c1 (centres undefined),inactive: -1.31%
20,CP(=O)(Nc1ccccc1)Oc1ccc(F)cc1 (centres undefined),inactive: -0.48%

row,SMILES,inhibition
1,COc1ccc(OP(C)(=O)Nc2ccc(SC(F)(F)F)cc2)cc1 (centres undefined),inactive: -0.15%
2,CCOC(=O)c1ccc(NP(C)(=O)Oc2ccc(F)cc2)cc1 (centres undefined),inactive: -3.33%
3,O=C(OCCN1CCN(CCOCc2ccccc2)CC1)C(O)(c1ccccc1)c1ccccc1,inactive: 1.89%
4,O=C(OC1CN2CCC1CC2)c1ccc([N+](=O)[O-])cc1 (centres undefined),inactive: 6.03%
5,COc1ccc2c(c1O)-c1c(O)c(OC)cc3c1[C@H](C2)[N+](C)(C)CC3.O=[N+]([O-])c1cc([N+](=O)[O-])c([O-])c([N+](=O)[O-])c1[O-],inactive: 2.21%
6,O=[N+]([O-])c1cc([N+](=O)[O-])c(Nc2ccc(Cl)cc2)c([N+](=O)[O-])c1,inactive: -5.52%
7,CC(C)c1ccc(OP(C)(=O)Nc2ccc(SC(F)(F)F)cc2)cc1 (centres undefined),inactive: 1.58%
8,CP(=O)(Nc1ccccc1F)Oc1ccccc1 (centres undefined),inactive: -0.78%
9,CP(=O)(Nc1ccc2c(c1)OCCO2)Oc1ccccc1 (centres undefined),inactive: -0.36%
10,Cc1ccccc1NP(C)(=O)Nc1ccccc1C,inactive: 1.39%
11,CP(=O)(Nc1ccc(SC(F)(F)F)cc1)Oc1ccc(F)cc1 (centres undefined),inactive: 4.39%
12,CCOP(C)(=S)SCC(=O)NC(C)(CC)C(=O)O (centres undefined),inactive: 4.74%
13,Cc1cc(-c2cccc3ccccc23)c(C)cn1.O=[N+]([O-])c1cc([N+](=O)[O-])c(O)c([N+](=O)[O-])c1,inactive: -0.51%
14,O=[N+]([O-])c1cc([N+](=O)[O-])c(NCC2CCS(=O)(=O)C2)c([N+](=O)[O-])c1 (centres undefined),inactive: -0.6%
15,O=[N+]([O-])c1ccc(OP2(=O)COCCO2)cc1 (centres undefined),inactive: 3.24%
16,Cc1c(C(c2ccc3c(c2)OCO3)c2c(C)n(C)n(-c3ccccc3)c2=O)c(=O)n(-c2ccccc2)n1C.O=[N+]([O-])c1cc([N+](=O)[O-])c(O)c([N+](=O)[O-])c1,inactive: 1.44%
17,COc1ccc(OP(C)(=O)Nc2cccc(Br)c2)cc1 (centres undefined),inactive: 5.57%
18,COc1ccc(NP(C)(=O)Oc2ccccc2OC)cc1 (centres undefined),inactive: 3.48%
19,CN(C)CCOC(=O)C(O)(c1ccccc1)C1CCCCC1 (centres undefined),inactive: -1.59%

# Reference: PubChem BioAssay AID588664 (The Scripps Research Institute Molecular Screening Center, 2011)
